hiPSC survival: increases survival of single human iPS cells; hiPSC single-cell survival, ATPlite luminescence; 100% = ROCK inhibitor wells, 0% = DMSO; survival enhancement, % at 20 µM; 360,000 compounds, 0.044% hits; AID 602274; in the data active means survival enhancement above about 18%;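 further: cells exposed to compounds for 16 hours before the ATP read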
C2C12 statin: protects C2C12 myotubes from simvastatin toxicity. ATP luminescence, 48 h; scaled: DMSO 0, geranylgeraniol control 100. rescue of ATP level, % at 7.49 µM. 330,000 compounds, 0.78% hits. AID 602340;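 active means mean ATP rescue above about 67%, or every replicate alone reaching that limit, limit read from the data, passing the limit was not always enough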;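 further: myotubes were challenged with 10 µM simvastatin during compound exposure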
Yeast UUG start-1: modulators of yeast start codon fidelity, primary screen, whole organism, S. cerevisiae, single point, plate reader | AID 602363, 2012 | S. cerevisiae UUG-firefly luciferase reporter, luminescence/redox ratio | activity score, % at 18.7 µM | hit rate 0.13% among 350,000;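 active = replicate mean at a twofold rise or more, about +100% in these data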;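 also: firefly luciferase made from a UUG start codon reports start codon fidelity; reporter light over untreated wells divided by growth signal over untreated wells; some hits fall short of that in this replicate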
FN deposit inh: fibronectin deposition inhibition; 350,000 compounds, 0.086% hits; AH1F fibroblasts, Alexa488-fibronectin deposition fluorescence, overnight; inhibition, % at 12.6 µM; AID 743247;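 active means mean inhibition across replicates of 30% or more, regardless of how many single replicates reach that level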;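 further: positive control wells lacked labelled fibronectin entirely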
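Material: AH1F fibroblasts assembling fluorescent fibronectin matrix; amount: 10000 AH1F cells/well; medium: DMEM, 2% serum; reagent: Alexa488-fibronectin, 24 nM final in well; dosing: single compound dose, delivered by pin transfer; incubation: 1 h adhesion, overnight exposure; detection: fluorescence after three HBSS washes, excitation 485 nm, emission 525 nm; measure: fibronectin deposition inhibition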
PGC1a acetyl inh: modulators of PGC1a acetylation; U2OS PGC1a acetylation, AlphaScreen anti-acetyl-lysine; with virally co-expressed GCN5 acetyltransferase; inhibition, % at 15.6 µM; 350,000 compounds, 0.17% hits;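 active means every replicate shows inhibition of at least 40%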;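 further: 0% = neutral control wells and 100% = positive control wells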
Yeast UUG start-2: modulators of start codon recognition fidelity in yeast; S. cerevisiae UUG-start firefly luciferase, luminescence, 4 h; 100% means double the DMSO signal; shares compounds with Yeast UUG start-1; 540 tested, under 10 active; activation, % at 38 µM; AID 652061;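 active means signal increase whose fitted curve reaches an absolute level of 40 at a concentration under 10 µM; inactive means activity opposite to the expected increase, or the rest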
* marks the source's active call; other numbers are inactive results; i = inactive; nt = no result. Sampled rows, rich in hits. Any-hit rate of the full collection: about 0.91%.

SMILES	hiPSC survival	C2C12 statin	Yeast UUG start-1	FN deposit inh	PGC1a acetyl inh	Yeast UUG start-2
CNC[C@H]1Oc2cc(C#Cc3ccncc3)ccc2S(=O)(=O)N([C@H](C)CO)C[C@H]1C	nt	-18	129*	-1	-17	i
C[C@H](CO)N1C[C@H](C)[C@H](CN(C)C(=O)C2CCOCC2)Oc2cc(C#Cc3ccncc3)ccc2S1(=O)=O	nt	-4	191*	nt	19	i
CCN(CC)CC#CC(O)(c1ccccc1)c1ccccc1	0	nt	nt	6	-3	15
CCN(CC)CC#CCC(OC)(c1ccccc1)c1ccccc1	1	nt	nt	8	nt	4
CCN(CC)CC#CCC(O)(c1ccccc1)C1CCCC1 (stereo unspecified)	1	-3	-13	nt	1	nt
O=C1CN(Cc2ccccc2)C[C@@H]2[C@H](c3ccc(-c4cccnc4)cc3)[C@@H](CO)N12	nt	nt	nt	nt	3	nt
C[C@@H]1CCCCO[C@H](CN(C)C)[C@H](C)CN([C@@H](C)CO)C(=O)c2cc(NC(=O)c3ccccc3)ccc2O1	nt	-23	14	nt	2	nt
C[C@@H](NC(=O)C[C@@H]1CC[C@H](NC(=O)C2CCOCC2)[C@H](CO)O1)c1ccccc1	nt	-3	171*	-6	2	i
C[C@@H](NC(=O)C[C@@H]1CC[C@H](NC(=O)Nc2ccc3c(c2)OCO3)[C@@H](CO)O1)c1ccccc1	nt	1	127*	-2	-7	i
CCS(=O)(=O)Nc1ccc2c(c1)C(=O)N(C)C[C@H](OC)[C@@H](C)CN(C(=O)C1CC1)[C@@H](C)CO2	nt	-9	-7	5	5	nt
O=C(C[C@H]1C=C[C@H](NC(=O)C2CC2)[C@H](CO)O1)NCCc1cscn1	nt	nt	nt	-20	nt	nt
COCC(=O)N(C)C[C@H]1Oc2ncc(C#Cc3ccc(F)cc3)cc2C(=O)N([C@@H](C)CO)C[C@H]1C	nt	16	19	-1	11	nt
CO[C@@H]1CN(C)C(=O)c2ccc(NC(=O)C3CCOCC3)cc2OC[C@H](C)N(C)C[C@H]1C	nt	-6	nt	7	-15	nt
CCCc1cc(=O)[nH]c(SCC(=O)c2cc(C)n(-c3cc(C)on3)c2C)n1	-1	7	nt	-1	-2	-2
Cc1cc(-n2c(C)cc(C(=O)CSc3nc(N)cc(=O)[nH]3)c2C)no1	0	-5	-8	1	-6	5
CO[C@H]1CC[C@@H]2CCOc3ccc(C#N)cc3C(=O)N(C)C[C@H](C)C(=O)N(C)C[C@@H]1O2	nt	-9	nt	-2	nt	nt
COc1cccc(S(=O)(=O)Nc2ccc3c(c2)[C@@H]2C[C@H](CC(=O)NCc4ccc(Cl)cc4)O[C@@H](CO)[C@@H]2O3)c1	nt	-2	nt	nt	-14	nt
O=C(CN1C(=O)c2ccccc2S1(=O)=O)c1ccc(O)c(O)c1	0	nt	165*	-9	4	-5
O=C(CN1C(=O)c2ccccc2S1(=O)=O)c1ccc(F)c(F)c1	0	nt	-29	nt	1	nt
N#Cc1cccc(-c2ccc([C@H]3[C@@H](CO)N4CCCCN(C(=O)Nc5ccc(F)cc5)C[C@H]34)cc2)c1	nt	nt	23	nt	0	nt
OC(C#CCN1CCCC1)(c1ccccc1)c1cccc(F)c1 (stereo unspecified)	0	nt	nt	-1	nt	12
CC(O)(C#CCN1CCCC1)c1ccccc1 (stereo unspecified)	1	-9	5	nt	3	-5
CC(O)(C#CCN1CCCCC1)c1ccccc1 (stereo unspecified)	0	5	-22	nt	-15	nt
CC=Cc1ccc2n(c1=O)C[C@@H]1[C@@H](CO)[C@H](C(=O)NCCCN(C)C)[C@H]2N1C(=O)c1ccccc1F (mixture of isomers)	nt	8	nt	nt	nt	nt
C[C@@H]1CN([C@@H](C)CO)C(=O)c2ccccc2-c2ccccc2CO[C@H]1CN(C)C(=O)[C@@H]1CCCN1C	nt	nt	nt	-5	4	nt
CCN(C[C@H]1[C@@H](c2ccccc2)[C@@H](CO)N1C(C)=O)C(=O)c1ccccn1	nt	4	127*	-3	-9	i
CCC(=O)N(C)C[C@@H]1Oc2cc(C#CC(C)C)ccc2S(=O)(=O)N([C@H](C)CO)C[C@@H]1C	nt	-1	12	nt	0	nt

Taken from the listing (two entries):
SMILES	hiPSC survival	C2C12 statin	Yeast UUG start-1	FN deposit inh	PGC1a acetyl inh	Yeast UUG start-2
CNC[C@H]1Oc2cc(C#Cc3ccncc3)ccc2S(=O)(=O)N([C@H](C)CO)C[C@H]1C	nt	-18	129*	-1	-17	i
C[C@H](CO)N1C[C@H](C)[C@H](CN(C)C(=O)C2CCOCC2)Oc2cc(C#Cc3ccncc3)ccc2S1(=O)=O	nt	-4	191*	nt	19	i

Ordered by value in PGC1a acetyl inh (rising): 3 of the compounds above
| SMILES | Yeast UUG start-1 | PGC1a acetyl inh | Yeast UUG start-2 |
| --- | --- | --- | --- |
| CO[C@@H]1CN(C)C(=O)c2ccc(NC(=O)C3CCOCC3)cc2OC[C@H](C)N(C)C[C@H]1C | nt | -15 | nt |
| CCN(C[C@H]1[C@@H](c2ccccc2)[C@@H](CO)N1C(C)=O)C(=O)c1ccccn1 | 127* | -9 | i |
| C[C@H](CO)N1C[C@H](C)[C@H](CN(C)C(=O)C2CCOCC2)Oc2cc(C#Cc3ccncc3)ccc2S1(=O)=O | 191* | 19 | i |

Bioassay records deposited in PubChem BioAssay by several laboratories.
